Patent publication US20090036389A1, “Polymeric Micelle Formulations of Hydrophobic Compounds and Methods” (priority 2002, published 2009)

Test system: bovine erythrocytes

Substance	hemolysis at 9 h	hemolysis at 16 h	hemolysis at 24 h	onset of hemolysis	time-dependent hemolytic profile / onset of hemolysis	hemolysis by polymer micelles in the absence of AmB
poly(ethylene glycol)-block-poly(N-hexyl-L-aspartamide)-stearic acid ester [PEG-b-p(HASA), 91%]	very little hemolysis	20%	approximately 40%	more rapid	delayed compared to equivalent concentrations of free AmB	
poly(ethylene glycol)-block-poly(N-hexyl-L-aspartamide)-stearic acid ester [PEG-b-p(HASA), 46%]						no hemolysis was observed
